This is an account of results in PMC8123651, “Flavones from Combretum quadrangulare Growing in Vietnam and Their Alpha-Glucosidase Inhibitory Activity” (Molecules, 2021).

This assay concerns methicillin-resistant Staphylococcus aureus (MRSA). In words: Antibacterial activity, agar well diffusion method. It is filed as cell-based. Particulars: read-out: Diameter of inhibition zone. As to the method:
Methicillin-resistant Staphylococcus aureus (MRSA), extended spectrum beta-lactamase-producing Escherichia coli (ESBL-producing E. coli) and the agar well diffusion method were used to evaluate the antibacterial activity of the isolated compounds [29]. The strains were cultured in nutrient broth at 37 °C for 18 h and diluted with steriled 0.9% NaCl to obtain the 1.5 × 10^8 CFU/mL bacterial solution. Then, 100 μL of the bacterial solution was spread on Mueller–Hinton agar (MHA) plate on which 8-mm wells were created aseptically with tips. The isolated compounds were dissolved in dimethyl sulfoxide at the concentration of 1 mg/mL and 50 μL of each compound solution was applied in each well. The plates were incubated at 37 °C for 16–18 h and the diameters of the inhibtion zones were measured. Dimethyl sulfoxide and apramycin were used as controls in this experiment.
(In general: In agar diffusion tests the substance spreads into inoculated agar from a disc or well.)

As usually defined, the zone of inhibition is the size of the clear area around the sample on an inoculated plate. On to `COc1cc(O)c2c(=O)c(O)c(-c3ccc(O)cc3)oc2c1` [Compound 4, rhamnocitrin], for which the zone of inhibition at 50 µg/disc is 14 mm.
